UUG fidelity: modulators of start codon recognition fidelity in yeast; S. cerevisiae UUG-firefly luciferase reporter, luminescence/redox ratio; activity score, % at 18.7 µM; hit rate 0.13% among 350,000; AID 602363;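 active = replicate mean at a twofold rise or more, about +100% in these data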;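 note: firefly luciferase made from a UUG start codon reports start codon fidelity; reporter light over untreated wells divided by growth signal over untreated wells; some hits fall short of that in this replicate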
MITF TRPM1 HTS: activators of MITF-driven TRPM1 promoter reporter, primary screen, cell-based, SK-MEL-5, luciferase, single point; SK-MEL-5 TRPM1-promoter luciferase, 24 h; % of positive control, neutral wells = 0; activation, % at 12.5 µM; 300,000 tested, 0.75% active; AID 588334, 2011;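 active = mean activation of at least 80% with every replicate also reaching 80%; inconclusive = mean reaches 80% but some replicate falls short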;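 also: 0% = neutral control wells and 100% = parthenolide positive control wells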
miR-122 sensor: miR-122 Renilla sensor signal increase in Huh7, primary screen, miR-122 inhibitor project, cell-based, single point, plate reader; Huh7 miR-122 Renilla luciferase sensor, 48 h; neutral wells = 0, positive control = 100; activation (reporter increase), % at 12.5 µM; 340,000 tested, 0.3% active;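 active = mean replicate activation score at least 90 and every replicate individually at or above 90; inconclusive = only one of the two criteria met; inactive = neither criterion met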;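 also: higher luciferase means less miR-122 activity so hits act as miR-122 inhibitors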
esBAF inh: Bmi1 luciferase reporter increase in mESCs, primary screen, esBAF inhibitor project, mouse ES cells, Bmi1 luciferase knock-in, single point; reporter increase, % at 12.5 µM; 24 h; 100% = twice the neutral-well signal; 350,000 tested, 2% active; AID 602393, 2012; in the data active = activation above about 40%; inconclusive = no clear call, values can overlap the other calls;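 also: 0% = median of the plate's neutral control wells and 100% = double that signal; a rise in the Bmi1 reporter signal indicates esBAF inhibition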
Wnt act: Wnt/beta-catenin pathway activators, primary screen, cell-based, plate reader, single point. Wnt/beta-catenin reporter cell assay, activator. activation, % at 9.35 µM. 300,000 tested, 1.2% active. AID 743398, 2014; in the data active = activation above about 30%, passing the limit was not always enough; inconclusive = no clear call, values can overlap the other calls;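 also: 0% = neutral control wells and 100% = positive control wells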
PglD DTNB: C. jejuni PglD acetyltransferase inhibitors, primary screen, biochemical, DTNB colorimetric, single point; 360,000 tested, 0.098% active; inhibition, % at 12.5 µM; purified PglD enzyme, DTNB colorimetric CoA detection; in the data active = inhibition above about 16%, passing the limit was not always enough; inconclusive = no clear call, values can overlap the other calls
* marks the source's active call; other numbers are inactive results; ? = inconclusive; / = not tested or not shown; [ ] = remark or other dose. Sampled rows, rich in hits. Any-hit rate of the full collection: about 2.8%.

SMILES | UUG fidelity | MITF TRPM1 HTS | miR-122 sensor | esBAF inh | Wnt act | PglD DTNB
C[C@@H]1CN([C@@H](C)CO)C(=O)c2cccc(NS(=O)(=O)c3ccc(F)cc3)c2O[C@@H]1CN(C)CC1CC1 | 3 | / | -1[16.7 µM] | 1 | / | 0
Cc1ccc(NC(=O)CN(C)S(=O)(=O)c2cccs2)cc1F | -12 | 45 | -7 | 51* | / | 0
Cc1ccc(NC(=O)CN(C)S(=O)(=O)c2cccs2)c(Br)c1 | -1 | 11 | 0 | 32 | 1 | 7
COc1cc(NC(=O)CN(C)S(=O)(=O)c2cccs2)cc(OC)c1 | -13 | 5 | / | 6 | -3 | -1
CCOc1ccc(NC(=O)CN(C)S(=O)(=O)c2cccs2)cc1 | 19 | 40 | -2 | 54* | / | 4
Cc1ccc(NC(=O)CN(C)S(=O)(=O)c2cccs2)cc1C | -26 | 45 | -2 | 98* | 3 | -4
COc1ccccc1CN(C)C[C@H]1OCc2cn(nn2)CCCC(=O)N([C@@H](C)CO)C[C@H]1C | -18 | / | -2[16.7 µM] | -4 | / | -4
CC1=NN(c2ccccc2)C(=O)/C1=C/c1c(O)n(-c2ccc(F)cc2)[nH]c1=O | -16 | 14 | -2 | 55* | 7 | -11
CC1=NN(c2ccccc2)C(=O)/C1=C/c1ccc[nH]1 | -5 | 18 | 7 | 50* | / | -18
CC1=NN(c2ccccc2)C(=O)C1=Cc1ccccc1 | -7 | / | 1 | -5 | 1 | 2
CCCC(=O)Nc1ccc(C(=O)COC(=O)C2CC2C)cc1 (stereo unspecified) | -7 | 79 | 6 | 39 | 45* | -3
CC(=O)Nc1ccc(C(=O)COC(=O)c2c(C)noc2C)c(F)c1 | -3 | / | -6 | 11 | 8 | 1
CC(=O)c1ccc(NC(=O)COC(=O)C2CC3C=CC2C3)cc1 (stereo unspecified) | -12 | 56 | / | 17 | 43* | 1
CC(=O)Nc1ccc(C(=O)COC(=O)c2cccs2)c(F)c1 | -38 | 127* | 1 | 68* | 57* | 9
CC(=O)Nc1ccc(C(=O)COC(=O)C2CC2C)c(F)c1 (stereo unspecified) | -56 | 107* | 0 | 13 | 42* | -3
CCCC(=O)Nc1ccc(C(=O)COC(=O)C2=COCCO2)cc1 | / | 16 | / | / | 11 | /
CO[C@@H]1CN(C)C(=O)c2ccc(NC(=O)c3cc(C)on3)cc2OC[C@@H](C)N(C(=O)C2CC2)C[C@H]1C | -5 | / | 6[16.7 µM] | 5 | / | -1
O=C(OCCN=C1NS(=O)(=O)c2ccccc21)c1ccccc1 | 3 | / | 215* | -2 | -4 | 3
C[C@@H]1CN([C@H](C)CO)C(=O)c2cc(-c3cccc(F)c3)cnc2O[C@@H]1CN(C)C(=O)C1CCC1 | 2 | / | 0[16.7 µM] | 2 | / | 3
COc1ccc(CNC(=O)C(c2ccc(C)o2)N(Cc2cccs2)C(=O)Cc2cccs2)cc1 (stereo unspecified) | -5 | -8 | 158* | 14 | 16 | -4
O=c1oc(CCO)cc2ccc(C#Cc3ccsc3)cc12 | -12 | 115* | -6 | 79* | 33* | 4
O=c1oc(CCCO)cc2ccc(C#Cc3cccnc3)cc12 | -14 | 46 | / | 30 | 22 | 6
COc1cc(C#Cc2ccc3cc(CCO)oc(=O)c3c2)cc(OC)c1 | -16 | 144* | -2 | 58* | 38* | 6
CN(C)c1ccc(C#Cc2ccc3cc(CCO)oc(=O)c3c2)cc1 | -12 | 128* | -4 | 32 | / | -7
Cc1cccc(-n2cnc3cc(C(=O)N4CCCCC4)ccc32)c1 | -13 | 27 | 2 | 44* | 11 | -9

Two entries from above, with each value named.
mol: COc1ccc(CNC(=O)C(c2ccc(C)o2)N(Cc2cccs2)C(=O)Cc2cccs2)cc1 (stereo unspecified)
  UUG fidelity: -5; MITF TRPM1 HTS: -8; miR-122 sensor: 158*; esBAF inh: 14; Wnt act: 16; PglD DTNB: -4

mol: CCCC(=O)Nc1ccc(C(=O)COC(=O)C2CC2C)cc1 (stereo unspecified)
  UUG fidelity: -7; MITF TRPM1 HTS: 79; miR-122 sensor: 6; esBAF inh: 39; Wnt act: 45*; PglD DTNB: -3

A draw from above in order of molecular weight, falling.
SMILES | UUG fidelity | MITF TRPM1 HTS | miR-122 sensor | esBAF inh | Wnt act | PglD DTNB
COc1ccc(CNC(=O)C(c2ccc(C)o2)N(Cc2cccs2)C(=O)Cc2cccs2)cc1 (stereo unspecified) | -5 | -8 | 158* | 14 | 16 | -4
CCOc1ccc(NC(=O)CN(C)S(=O)(=O)c2cccs2)cc1 | 19 | 40 | -2 | 54* | / | 4
Cc1cccc(-n2cnc3cc(C(=O)N4CCCCC4)ccc32)c1 | -13 | 27 | 2 | 44* | 11 | -9
CC(=O)Nc1ccc(C(=O)COC(=O)C2CC2C)c(F)c1 (stereo unspecified) | -56 | 107* | 0 | 13 | 42* | -3

Further compounds
SMILES | UUG fidelity | MITF TRPM1 HTS | miR-122 sensor | esBAF inh | Wnt act | PglD DTNB
COc1ccc(-c2oc3ccccc3c2C(=O)OCc2ccc(O)cc2)cc1 | -11 | 2 | -5 | 45* | -2 | 3
Cc1noc(C)c1NC(=O)Nc1ccc2c(c1)CC(=O)N([C@@H](C)CO)C[C@@H](C)[C@H](CN(C)Cc1ccncc1)O2 | 0 | / | 69[16.7 µM] | 2 | / | -9
CCC(=O)N1CC[C@@H]2[C@H]1c1cc(-c3ccc(C(=O)N(C)C)cc3)ccc1N[C@@H]2CO | 0 | / | 0[16.7 µM] | 0 | / | 2
CC(=O)Nc1ccc(NS(=O)(=O)c2cccc3ccccc23)cc1 | 24 | -11 | 73 | -8 | 3 | 1
O=S(=O)(Nc1ccc(C(O)(C(F)(F)F)C(F)(F)F)cc1)c1cccc2ccccc12 | 1 | / | 102* | -3 | -1 | -8
CC(C)(C)c1ccc(S(=O)(=O)Nc2ccc(C(O)(C(F)(F)F)C(F)(F)F)cc2)cc1 | 3 | / | 103* | 9 | -1 | -4
COc1cccc(S(=O)(=O)Nc2ccc(C(O)(C(F)(F)F)C(F)(F)F)cc2)c1 | -10 | / | 129* | -3 | -2 | -5
C[C@@H]1CN([C@@H](C)CO)C(=O)Cc2cc(NC(=O)CCCN(C)C)ccc2O[C@H]1CN(C)S(=O)(=O)c1ccccc1 | 2 | / | -2[16.7 µM] | 4 | / | 4
CO[C@@H]1CN(C)C(=O)c2ccc(NS(=O)(=O)C3CCCCC3)cc2OC[C@@H](C)NC[C@@H]1C | -20 | / | -1[16.7 µM] | 3 | / | 1
C[C@H]1CN([C@@H](C)CO)C(=O)c2cc(/C=C/c3ccccc3)cnc2O[C@@H]1CN(C)C(=O)c1ccc2c(c1)OCO2 | 2 | / | -8[16.7 µM] | 0 | / | 3
C[C@@H](NC(=O)C[C@@H]1C[C@@H]2c3cc(NC(=O)CC4CC4)ccc3O[C@@H]2[C@H](CO)O1)c1ccccc1 | -7 | / | 5[16.7 µM] | -5 | / | 2
CNC[C@@H]1OCCCC[C@@H](C)Oc2ccc(NC(=O)c3ccccc3)cc2C(=O)N([C@H](C)CO)C[C@H]1C | 15 | / | -9[16.7 µM] | -2 | / | -1
O=C(CSc1nncs1)Nc1ccc(N2CCCCC2)cc1 | -20 | 25 | -11 | 57* | 14 | 0
C[C@H]1CN([C@@H](C)CO)C(=O)CCCn2nncc2CO[C@H]1CN(C)Cc1ccc(C(F)(F)F)cc1 | / | / | -1[16.7 µM] | -2 | / | /
CCCN1[C@H](C(=O)N2CCOCC2)[C@@H](CO)[C@@H]2Cn3c(ccc(-c4ccccc4)c3=O)[C@@H]21 | / | / | / | -1 | / | 47
Cc1ccc(NC(=O)N(C2=NCC(C)S2)c2ccccc2)cc1 (stereo unspecified) | -14 | ? | ? | 43* | / | -3
Cc1cccc(N(C(=O)Nc2ccccc2)C2=NCC(C)S2)c1 (stereo unspecified) | -9 | 24 | 1 | 17 | 4 | -4
S=c1nc(Cc2ccccc2)[nH]c2ccccc12 | -11 | -7 | / | 15 | -1 | 8
Nc1ccc2nc(Cc3ccccc3)[nH]c2c1 | 1 | 18 | / | ? | -1 | -6
